Measured values taken from PubChem BioAssay AID1461 (National Center for Advancing Translational Sciences (NCATS), 2008).
“And” between values parts separate entries of the source, which are not always exact repeats. Identical values can stand only once. This is a selection; strong and weak results do not stand in their true shares. Records with an inconclusive call do not appear. The source made the active and inactive calls. Calls follow the shape of the dose curve; as a rule, active = well fitted inhibition curve with a large enough effect; inconclusive = small, poorly fitted or top-dose-only effect, or effect the other way; inactive = no such curve, though single readings can be large or run the other way.

Sequences of proteins named here, by UniProt entry; tags and fusion partners are left off. A change or cut given only in a name is not applied to a line headed by its entry.
UniProt Q6W5P4: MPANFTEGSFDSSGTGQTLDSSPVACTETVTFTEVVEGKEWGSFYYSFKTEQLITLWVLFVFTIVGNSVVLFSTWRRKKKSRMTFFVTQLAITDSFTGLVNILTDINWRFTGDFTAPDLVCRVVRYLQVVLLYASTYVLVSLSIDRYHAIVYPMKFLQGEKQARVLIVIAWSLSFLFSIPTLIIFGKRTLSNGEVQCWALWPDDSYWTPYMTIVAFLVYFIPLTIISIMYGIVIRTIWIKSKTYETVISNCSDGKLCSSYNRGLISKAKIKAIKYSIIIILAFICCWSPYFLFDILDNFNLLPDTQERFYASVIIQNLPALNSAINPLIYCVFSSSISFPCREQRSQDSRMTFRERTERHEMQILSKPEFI

Biological target: Neuropeptide S receptor (Homo sapiens) (UniProt Q6W5P4)
Assay: qHTS Assay for Antagonists of the Neuropeptide S Receptor: cAMP Signal Transduction; also: nearly all actives have a fitted effect of over 50% in size
Details: CHO-NPSR cells, cAMP TR-FRET, antagonist mode; at 38.3 µM (top of the series) unless noted
% is scaled to controls: 0 for no effect and ±100 for the full control effect.

Compound | activity change, negative = inhibition
O=[N+]([O-])c1ncn(CCn2cnc([N+](=O)[O-])n2)n1 | inactive: 8.34%
CC(=O)NC(SC(=S)N(C)C)C(Cl)(Cl)Cl (stereo not given) | inactive: -45.8%
O=[As](O)(c1ccccc1)c1ccc(O)cc1 | inactive: -21.1%
Nc1ccc([As](=O)(O)c2ccc([N+](=O)[O-])cc2)cc1 | inactive: -11.3%
C(Cc1nn[nH]n1)Cc1nn[nH]n1 | inactive: 17.1%
O=C(OC1CN2CCC1CC2)c1cccc(Cl)c1 (stereo not given) | inactive: -5.97% [at 46.1 µM]
O=P(Nc1ccccn1)(c1ccc(Br)cc1)c1ccc(Br)cc1 | inactive: -32.9%
O=P(Nc1nc2ccccc2s1)(c1ccccc1)c1ccccc1 | inactive: 14.3%
C[C@H]1OP(=O)(Oc2ccccc2)[C@H](O)[C@H](O)[C@H]1N=[N+]=[N-] (stereo not given in full) | inactive: 14.7%
CC(C)C(=O)NC(Sc1ccccc1)C(Cl)(Cl)Cl (stereo not given) | inactive: -11.9%
O=P(Nc1nccs1)(c1ccccc1)c1ccccc1 | inactive: -12.3% [at 46.1 µM]
c1nnnn1CCn1cnnn1 | inactive: -5.1% [at 46.1 µM]
C[C@@H]1C=CCP(=O)(Oc2ccccc2)O1 (stereo not given in full) | inactive: -0.788%
C[C@H]1OP(=O)(Oc2ccccc2)C[C@@H]2O[C@@H]21 (stereo not given in full) | inactive: 21.6%
CC(=O)Nc1ccc([As](=O)(O)O)c(O)c1 | inactive: -10.8%
CC(=O)Nc1ccc(Oc2c([N+](=O)[O-])cc([N+](=O)[O-])cc2[N+](=O)[O-])cc1 | inactive: 1.84%
O=P1(Nc2nc3ccc(Cl)cc3s2)COc2ccccc2O1 (stereo not given) | inactive: 6.82% [at 46.1 µM]
CCOc1ccc(C2=NCC(CBr)S2)cc1 (stereo not given) | inactive: -11.5%
CC(C)(C)C(=O)NC(Sc1ccccc1)C(Cl)(Cl)Cl (stereo not given) | inactive: -56.8%
COC(=O)c1cc2c(s1)N=C(c1ccccc1)N(C)P2(=O)N1CCOCC1 (stereo not given) | inactive: -4.47% [at 46.1 µM]
Cc1ccc(OP(=O)(Nc2ccccn2)Oc2ccc(C)cc2)cc1 | inactive: -35.2%
CC(=O)NC(SC(=S)N(CC(C)C)CC(C)C)C(Cl)(Cl)Cl (stereo not given) | inactive: -21.2%
CN(C(=O)Cc1ccc(Cl)c(Cl)c1)[C@@H]1CCCC[C@@H]1N1CCCC1 | inactive: 1.8% [at 46.1 µM]
CCC(=O)N1C2C3N(C(=O)CC)C1C1N(C(=O)CC)C(C(N1C(=O)CC)N3C(=O)CC)N2C(=O)CC | inactive: -2.08% [at 46.1 µM]

Compound | activity change, negative = inhibition
Cc1ccccc1OP(=O)(Nc1ccccn1)Oc1ccccc1C | inactive: -3.82%
CN(C)C(=O)Oc1noc2ccccc12 | inactive: 8.94%
CCNC(=S)/N=C(\N)N[N+](=O)[O-] | inactive: 4.57%
O=C(NC1CCS(=O)(=O)C1)NP(=S)(Oc1ccccc1)Oc1ccccc1 (stereo not given) | inactive: -2.64%
c1ccc(-c2nn[nH]n2)c(-c2nn[nH]n2)c1 | inactive: -25.9%
CCOC(=O)NC(Sc1ccccc1)C(Cl)(Cl)Cl (stereo not given) | inactive: -22.3% [at 46.1 µM]
Cc1ccc(NP(=O)(Oc2cccc(C)c2)Oc2cccc(C)c2)nc1 | inactive: 9.28%
CCN(N=Nc1nonc1N)c1nonc1N | inactive: 11.7%
Nc1cccc2ccc([As](=O)(O)O)cc12 | inactive: 1.33%
O=C(O)c1ccccc1[As](=O)(O)O | inactive: -2.43%
CC(=O)Nc1ccc([As](=O)(O)O)cc1 | inactive: -7.64%
O=P(Nc1nc2ccc(Cl)cc2s1)(c1ccccc1)c1ccccc1 | inactive: 51.9%
CCOP(=O)(Nc1ccccc1)OCC | inactive: -5.33% [at 46.1 µM]
Cc1cc(SC(NC(=O)c2ccc(F)cc2)C(Cl)(Cl)Cl)ncn1 (stereo not given) | inactive: 23.9%
Cc1ccc(NP(=O)(Oc2ccccc2F)Oc2ccccc2F)nc1 | inactive: -5.45%
CN(C(=O)Cc1ccc(Cl)c(Cl)c1)[C@H]1CCCC[C@@H]1N1CCCC1 | inactive: -11.6% [at 46.1 µM] and inactive: -15.2% [at 46.1 µM]
CC(C)CC(=O)NC(Sc1ccc(Cl)cc1)C(Cl)(Cl)Cl (stereo not given) | inactive: -20.4% [at 46.1 µM]
Nc1cc(N)c2nonc2c1[N+](=O)[O-] | inactive: 9.22%
Oc1ccccc1CNc1ccccn1 | inactive: -1.43% [at 46.1 µM]
O=C(NC(Sc1ccncn1)C(Cl)(Cl)Cl)c1ccccc1 (stereo not given) | inactive: 9.47%
NC(=O)c1cc([N+](=O)[O-])cc([N+](=O)[O-])c1N | inactive: 9.45%
Cc1ccc(N/C(=N/P(=O)(N2CCOCC2)N2CCOCC2)N2CCOCC2)cc1 | inactive: 7.95%
COc1ccccc1OP(=O)(Nc1ccc(C)cn1)Oc1ccccc1OC | inactive: -20.1%
Cc1ccc(OP(=O)(Nc2nccs2)Oc2ccc(C)cc2)cc1 | inactive: 9.14%

Compound | activity change, negative = inhibition
Clc1ccc(Cl)c(NC2=NCC(CBr)S2)c1 (stereo not given) | inactive: -13.1%
CN1CCCC(OC(=O)C(c2ccccc2)c2ccccc2)C1 (stereo not given) | inactive: -1.62% [at 46.1 µM]
Nc1ccc([As](=O)(O)c2ccc(N)cc2)cc1 | inactive: -9.82%
CCN(/C(=N/P(=O)(N1CCOCC1)N1CCOCC1)N1CCOCC1)c1ccc(OC)cc1 | inactive: 6.42%
CC(C)=N/N=C(\N)N[N+](=O)[O-] | inactive: 9.75%
CN(C)C(=O)OCCc1n(C)cc[n+]1C | inactive: 25.9%
COc1ccc(C2=NCC(CBr)S2)cc1 (stereo not given) | inactive: -5.95%
O=[N+]([O-])c1cccc2n[nH]nc12 | inactive: -8.03% [at 46.1 µM]
CC(=O)N1C2C3N(C(C)=O)C1C1N(C(C)=O)C(C(N1C(C)=O)N3C(C)=O)N2C(C)=O | inactive: -3.29% [at 46.1 µM]
Cc1ccc(NP(=O)(Oc2ccccc2)Oc2ccccc2)nc1 | inactive: -19.1%
O=[N+]([O-])c1cc([N+](=O)[O-])c(CCNc2ccccc2)c([N+](=O)[O-])c1 | inactive: 11.7%
CC(C)(C)C(=O)NC(Sc1ccncn1)C(Cl)(Cl)Cl (stereo not given) | inactive: 19%
O=[N+]([O-])c1ncn(CCn2ncnc2[N+](=O)[O-])n1 | inactive: 21.4%
O=[N+]([O-])c1cccc(NC2=NCC(CBr)S2)c1 (stereo not given) | inactive: 7.61%
O=C(O)CNc1ccc([As](=O)(O)O)cc1 | inactive: -12.3%
O=C(Nc1cc([As](=O)(O)O)ccc1O)c1ccccc1 | inactive: -24%
CCOC(=O)Nc1cccc([As](=O)(O)O)c1 | inactive: -19.8%
O=[N+]([O-])c1ccc(Nc2ccc(Oc3ccc([N+](=O)[O-])cc3[N+](=O)[O-])cc2)c([N+](=O)[O-])c1 | inactive: 36.5%
O=P(Nc1ccccn1)(c1cccc2ccccc12)c1cccc2ccccc12 | inactive: -25%
Cc1cc(SC(NC=O)C(Cl)(Cl)Cl)ncn1 (stereo not given) | inactive: 5.51%
CCOC(=O)Nc1ccc([As](=O)(O)O)c(O)c1 | inactive: -9.09%
Cc1cc(SC(NC(=O)c2ccccc2)C(Cl)(Cl)Cl)nc(C(C)C)n1 (stereo not given) | inactive: -0.533%
CCOC(=O)c1ccc(NC(=O)C(C)(CCl)SC)cc1 (stereo not given) | inactive: -2.7%
COP1(=S)c2c(C)nn(CCC#N)c2N=C(c2ccc(F)cc2)N1C (stereo not given) | inactive: -13.3% [at 46.1 µM]

Compound | activity change, negative = inhibition
O=C(COc1ccccc1)OC1CN2CCC1CC2 (stereo not given) | inactive: 12.4% [at 46.1 µM]
COc1ccc(N/C(=N/P(=O)(N2CCOCC2)N2CCOCC2)N2CCOCC2)cc1 | inactive: 19.5%
O=C(OC1CN2CCC1CC2)C12CC3CC(CC(C3)C1)C2 (stereo not given) | inactive: 4.53% [at 46.1 µM]
Cc1cc(=O)[nH]c(N[N+](=O)[O-])n1 | inactive: 10.3%
Cc1c2c(nc3ccccc13)SC(C(Cl)Cl)C2 (stereo not given) | inactive: 8.84%
COc1ccc2nc(NP(=O)(c3ccccc3)c3ccccc3)sc2c1 | inactive: -28.6%
COc1cc(I)ccc1[As](=O)(O)O | inactive: -10.6%
CC(C)c1ccc(OP(=O)(Nc2ccccn2)Oc2ccccc2F)cc1 (stereo not given) | inactive: -21.4%
ClCCSc1nnc(-c2cccnc2)o1 | inactive: 3.43% [at 46.1 µM]
CCN(CC)C(=S)SC(NC=O)C(Cl)(Cl)Cl (stereo not given) | inactive: -13.3% [at 46.1 µM]
CC(C)NC(=O)NP(=O)(Oc1ccccc1)Oc1ccccc1 | inactive: 5.71%
O=[N+]([O-])c1cc([N+](=O)[O-])c(-c2ccn[nH]2)s1 | inactive: 11.6%
C[As](=O)(O)c1cccc(C(=O)O)c1 | inactive: -17.9%
O=[As](O)(c1ccc(O)cc1)c1ccccc1O | inactive: -24.5%
Cc1ccc2nc3c(c(C)c2c1)CC(C(Cl)Cl)S3 (stereo not given) | inactive: -16.6% [at 46.1 µM]
Cc1ccc(OP(=O)(Nc2ccc([N+](=O)[O-])cn2)Oc2ccc(C)cc2)cc1 | inactive: -1.79%
NC(=O)Nc1ccc([As](=O)(O)O)cc1 | inactive: 22.2%
O=[N+]([O-])c1ccc2c(c1)nnn2O | inactive: 7.28% [at 46.1 µM]
CCOP1(=S)c2c(C)nn(CCC#N)c2N=C(c2ccc(F)cc2)N1C (stereo not given) | inactive: -23.5% [at 46.1 µM]
CN(C(=O)Cc1ccccc1)[C@@H]1CC[C@]2(CCCO2)C[C@H]1N1CCCC1 | inactive: 12.8%
CS(=O)(=O)c1cc([N+](=O)[O-])c2no[n+]([O-])c2c1 | inactive: 29.5%
CCOP1(=S)c2c(C)nn(CCC#N)c2N=C(c2ccccc2F)N1C (stereo not given) | inactive: -10.3% [at 46.1 µM]
O=P(Nc1nccs1)(c1ccccc1)c1nc2ccccc2s1 (stereo not given) | inactive: -16.8% [at 46.1 µM]
